The assay deals with Human-GLP-1 receptor (Homo sapiens (Human), UniProt P43220). Nature of the assay: In vitro cell activity assay (cAMP, HEK293 GLP-1 cells). The conditions noted are these: read-out: Human-GLP-1, EC50, cAMP detection. As for the experimental part:
Experimental Example 1: In Vitro Cell Activity Assay
The host cell HEK293 for GLP-1 was constructed by WuXi AppTec (Shanghai) Co., Ltd.
cAMP Detection Kit, Cisbio (Cat #62AM4PEJ); 1M HEPES, Invitrogen (Cat #15630-106); 1×HBSS, Invitrogen (Cat #14025); BSA, Sigma (Cat #B2064); IBMX, Sigma (Cat #I5879); Exenatide, Hao Yuan (HY-13443A).
The compounds were prepared into a working solution with a concentration of 30 μM using DMSO. In this assay, each sample was used in an amount of 5 μL.
• 24.5 mL of Hanks Buffer Saline Solution (HBSS), final concentration: lx; • 125 μL of HEPES 1M, final concentration: 5 mM; • 333 μL of 7.5% BSA Solution, final concentration: 0.1%; • 25 μL of IBMX 500 mmol/L, final concentration: 0.5 mmol/L.
Preparation of cAMP assay reagent: 250 μL of cAMP-D2 and 250 μL of anti-cAMP cryptate reagent were added to 4 mL of lysis buffer and mixed gently.
The compound to be tested was diluted 3-fold at 10 points with a starting concentration of 30 μM, and the dilution was completed using Bravo.
Exenatide, used as a control compound, was diluted 3-fold at 10 points with a starting concentration of 500 nM, and the dilution was completed using Bravo.
• 1) 100 nL of compound was transferred to an OptiPlate-384 plate using Echo. • 2) The OptiPlate-384 plate was centrifuged at 1000 rpm for 5 seconds.
• 1) A GLP-1 cell cryopreservation tube was rapidly thawed in a 37° C. water bath. • 2) The cell suspension was transferred to a 15 mL Transfer centrifuge tube and gently rinsed with 10 mL of HBSS. • 3) The centrifuge tube was centrifuged at 1000 rpm for 1 minute at room temperature. • 4) The supernatant was discarded. • 5) The cells at the bottom were gently dispersed, then rinsed with 10 mL of HBSS, centrifuged to sedimentation, and finally resuspended in the experimental buffer. • 6) The cell density and activity were measured using Vi-cell. • 7) The concentration of GLP-1 cells was diluted to 2.0*105/mL with the experimental buffer. • 8) […] of the diluted cell suspension was transferred to the OptiPlate-384 plate. • 9) The plate was incubated at room temperature for 30 minutes.
• 1) 10 μL of 800 nM gradient-diluted cAMP standard was added to the empty wells of the OptiPlate-384 plate. • 2) 10 μL of cAMP assay reagent was added. • 3) The OptiPlate-384 plate was covered with TopSeal-A film and incubated for 60 minutes at room temperature.
TopSeal-A was removed and the result was read in EnVision.

By UniProt entry, the sequences of proteins in these tests, tags left out. Residues count along the entry.
UniProt P43220, 24-463 limits assumed: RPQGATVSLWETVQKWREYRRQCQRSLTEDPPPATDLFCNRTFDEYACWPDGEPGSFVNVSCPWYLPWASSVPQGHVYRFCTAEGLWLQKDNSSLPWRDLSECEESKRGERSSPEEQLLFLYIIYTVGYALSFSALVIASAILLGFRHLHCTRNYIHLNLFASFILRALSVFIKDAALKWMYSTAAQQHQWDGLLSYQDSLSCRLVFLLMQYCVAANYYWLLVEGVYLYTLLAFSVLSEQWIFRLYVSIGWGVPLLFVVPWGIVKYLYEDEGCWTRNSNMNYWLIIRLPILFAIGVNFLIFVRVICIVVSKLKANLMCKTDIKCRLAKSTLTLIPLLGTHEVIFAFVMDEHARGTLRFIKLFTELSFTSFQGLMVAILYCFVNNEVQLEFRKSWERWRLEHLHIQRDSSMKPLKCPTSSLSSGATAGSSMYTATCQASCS

For `CC1(c2ccc(Cl)cn2)Oc2cccc(C3=CCN(Cc4nc5sc(C(=O)O)cc5n4C[C@@H]4CCO4)CC3)c2O1` (single isomer, unassigned), the EC50 amounted to 1.2 nM. As for `Cn1ccc(C2(C)Oc3cccc(N4CCC(Cc5nc6sc(C(=O)O)cc6n5C[C@@H]5CCO5)CC4)c3O2)n1` (single isomer, unassigned), the EC50 is 4.81 nM. As to `O=C(O)c1cc2c(nc(CN3CCC(c4cccc5c4OCC(c4ccc(Cl)cc4)O5)CC3)n2C[C@@H]2CCO2)s1` (single isomer, unassigned), the EC50 was determined as 1.49 nM. The same measure for `O=C(O)c1cc2c(nc(CN3CCC(c4cccc5c4OCC(c4ccc(Cl)cn4)O5)CC3)n2C[C@@H]2CCO2)s1` (single isomer, unassigned): 2.9 nM.

As usually defined, the EC50 is the midpoint of the concentration-response curve.

The values are drawn from US20240368178A1, “IMIDAZOCYCLIC COMPOUND AND APPLICATION THEREOF” (DONGBAO PURPLE STAR (HANGZHOU) BIOPHARMACEUTICAL CO., LTD., priority 2021, published 2024).
